Source: patent publication US11529359B2, “Use of GABAA receptor modulators for treatment of itch” (UNIVERSITÄT ZÜRICH, priority 2016, dated 2022)

Test system: chloroquine-induced itch
Test: chloroquine-induced itch (cheek injection) in wild-type mice
Assay type: in vivo, wild-type C57BL6/J mice
Conditions: per oral 0.01-3 mg/kg 90 min before 100 μg chloroquine; 30 min
Procedure: The same doses as in FIGS. 4A-4C of TPA023B were injected 90 minutes before a cheek injection of 100 μg chloroquine (FIGS. 5A & 5B). […] In order to assess the antipruritic effect of TPA023B in a clinically relevant disease, the contact dermatitis model of chronic itch was used. […] Thus, TPA023B is, in accordance with the other findings of the inventors, suitable as an antipruritic substance.
A class of molecules, separate from benzodiazepines, that potentiate the GABAA receptors are the neurosteroids, such as ganaxolone (Carter et al., J Pharmacol Exp Ther. 1997 March; 280(3):1284-95). In order to confirm the GABAA receptor as a target for treatment of pruritus, the inventors pretreated wild-type C57BL/6J mice with 30 mg/kg intraperitoneal ganaxolone (FIGS. 10A & 10B).
Acute itch was assessed in mice that received intradermal microinjections of pruritogens or 0.9% saline into the right cheek, which had been shaved at least one day before the experiment. […] Videos were analyzed off-line. Scratching of the hind paw directed to the ipsilateral cheek was counted in bouts, with one scratching bout defined as an instance when the mouse lifted its paw to scratch until it returned the paw to the cage floor. In case of experiments in which the pruritogen was injected in the skin of the thigh, the time spent biting the injected skin area was counted in s/min as a measure of itch.

CC(C)(O)c1cnn2c(-c3ccc(F)c(-c4c(F)cccc4C#N)c3)cnc2n1 [TPA023B, 6,2′-difluoro-5′-[3-(1-hydroxy-1-methylethyl)imidazo[1,2-b][1,2,4]triazin-7-yl]biphenyl-2-carbonitrile]
scratching bouts, chloroquine-induced itch: dose-dependent reduction of scratching bouts
